In BigSolDB 2.1:

NC(=O)c1ccccc1N
solubility (mole fraction) (in ethanol, 308.65 K): 0.0895 | solubility (mole fraction) (in n-propanol, 298.95 K): 0.0435
